Earlier results, collected in article PMC3458435.

Target: CD80 (Homo sapiens) (UniProt P33681)

Kd: 12 nM
Substance: CTLA-4 (from UniProt P16410)
